Test results reported in ChEMBL document CHEMBL3638717, “Inhibitors of the renal outer medullary potassium channel” (2015).

Each compound was assayed against T1, ATP-sensitive inward rectifier potassium channel 1 (Rattus norvegicus, UniProt P35560) (assay: Electrophysiology Assay: Block of Kir1.1 (ROMK1) currents was examined by whole cell voltage clamp (Hamill et. al. Pfluegers Archives 391:85-100 (1981)) using the IonWorks Quattro automated electrophysiology platform (Molecular Devices, Sunnyvale, Calif.). Chinese hamster ovary cells stably expressing Kir1.1 channels were maintained in T-75 flasks in cell culture media in a humidified 10% CO2 incubator at 37 C. Prior to an experiment, Kir1.1 expression was induced by overnight incubation with 1 mM sodium butyrate. On the day of the experiment, cells were dissociated with 2.5 mL of Versene (Invitrogen 15040-066) for approximately 6 min at 37 C. and suspended in 10 mL of bath solution containing (in mM): 150 NaCl, 10 KCl, 2.7 CaCl2, 0.5 MgCl2, 5 HEPES, pH 7.4. After centrifugation, the cell pellet was resuspended in approximately 4.0 mL of bath solution and placed in the IonWorks instrument. The intracellular solution consisted of (in mM): 80 K gluconate, 40 KCl, 20 KF, 3.2 MgCl2, 3 EGTA, 5 Hepes, pH 7.4.).
T1 sequence (P35560 whole entry): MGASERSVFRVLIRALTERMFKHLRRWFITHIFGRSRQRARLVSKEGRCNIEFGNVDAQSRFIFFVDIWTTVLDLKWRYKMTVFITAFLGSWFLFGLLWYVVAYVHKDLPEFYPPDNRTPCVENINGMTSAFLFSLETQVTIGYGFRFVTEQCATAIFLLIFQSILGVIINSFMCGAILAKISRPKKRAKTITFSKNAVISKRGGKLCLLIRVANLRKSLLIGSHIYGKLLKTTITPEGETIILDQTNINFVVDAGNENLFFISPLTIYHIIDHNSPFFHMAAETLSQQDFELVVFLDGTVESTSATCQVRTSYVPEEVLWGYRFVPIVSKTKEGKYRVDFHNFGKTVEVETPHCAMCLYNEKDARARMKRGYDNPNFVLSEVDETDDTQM
Assay type: cell-based

Row | IC50 | SMILES
1 | 200 nM | C[C@H]1Cc2cc([C@@H]3CN4CCN(C(=O)C5CCc6nc(-n7cnnn7)ccc65)C[C@H]4CO3)ccc2C(=O)O1 (stereo partly specified)
2 | 120 nM | C[C@H]1Cc2cc([C@H]3CN4CCN(C(=O)C5CCc6nc(-n7cnnn7)ccc65)C[C@@H]4CO3)ccc2C(=O)O1 (stereo partly specified)
3 | 100 nM | C[C@H]1Cc2c(ccc([C@@H]3CN4CCN(C(=O)C5CCc6nc(-n7cnnn7)ccc65)C[C@@H]4CO3)c2F)C(=O)O1 (stereo partly specified)
4 | 100 nM | C[C@H]1Cc2c(ccc([C@@H]3CN4CCN(C(=O)C5CCc6nc(-n7cnnn7)ccc65)C[C@H]4CO3)c2F)C(=O)O1 (stereo partly specified)
5 | 190 nM | C[C@@H]1Cc2cc([C@H]3CN4CCN(C(=O)C5CCc6nc(-n7cnnn7)ccc65)C[C@H]4CO3)ccc2C(=O)O1 (single isomer, unassigned)
6 | 100 nM | O=C1OCCc2cc([C@@H]3CN4CCN(C(=O)C5CCc6nc(-n7cnnn7)ccc65)C[C@H]4CO3)ccc21 (single isomer, unassigned)
